# Results from publication PMC8623652, “Disulfide Dimerization of Neuronal Calcium Sensor-1: Implications for Zinc and Redox Signaling” (International Journal of Molecular Sciences, 2021).
# Chains of the proteins cited; added tags and fusions are not shown. Lines headed by an entry give the natural chain unless they say otherwise; changes in a name come on top.
# UniProt P62166: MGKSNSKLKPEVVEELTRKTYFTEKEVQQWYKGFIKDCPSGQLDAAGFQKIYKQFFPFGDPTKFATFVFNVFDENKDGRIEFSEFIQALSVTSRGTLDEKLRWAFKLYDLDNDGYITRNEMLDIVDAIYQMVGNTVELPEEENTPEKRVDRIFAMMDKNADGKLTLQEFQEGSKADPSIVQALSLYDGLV
# B1: Chimera GRK1^N-C, fusion protein containing regulatory domains of GRK1 (GRK1 1-191,512-557) (domain or fragment)
# chain: MDFGSLETVVANSAFIAARGSFDASSGPASRDRKYLARLKLPPLSKCEALRESLDLGFEGMCLEQPIGKRLFQQFLRTHEQHGPALQLWKDIEDYDTADDALRPQKAQALRAAYLEPQAQLFCSFLDAETVARARAGAGDGLFQPLLRAVLAHLGQAPFQEFLDSLYFLRFLQWKWLEAQPMGEDWFLDFRPIPWQEEMIETGVFGDLNVWRPDGQMPDDMKGVSGQEAAPSSKSGM
# notes: G-protein coupled receptor kinase 1 (GRK1, rhodopsin kinase), residues 512-557; source: E. coli (plasmid pET28a), purified from bacterial lysate under non-denaturating conditions
# Molecular target: Disulfide dimer of NCS-1 (dNCS-1), prepared from purified recombinant NCS-1 (UniProt P62166 1-190, N-terminal myristoylation (~98%); disulfide bond between C38 of the two chains)
# Test: SPR; GRK1^N-C immobilised by amine coupling on a ProteOn GLH chip (up to 12,000 RU); analyte NCS-1 or dNCS-1 0.5 to 20 μM; 25 °C; 10 mM HEPES pH 7.4, 150 mM NaCl, 1 mM CaCl2, 0.05% Tween 20; global fits by the heterogeneous ligand model (both) or the bivalent analyte model (dNCS-1)
# Conditions: both partners purified
binder,measurement,value
B1,Kd,30 nM
same,koff,0.00023 s⁻¹
same,kon,9780 ± 5700 M⁻¹ s⁻¹
